Measurements reported in PubChem BioAssay (NCI).
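Cultured in 96-well plates, cells were exposed to test compound for 48 hours across five concentrations. GI50 = concentration required for 50% inhibition of growth. TGI: concentration producing complete growth inhibition.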

How the values were obtained:
Test in all cases: inhibition of tumour cell growth, NCI panel, 48 h
786-0 renal = tested on: 786-0 renal
A498 renal = tested on: A498 renal
A549 NSCLC = tested on: A549 NSCLC
ACHN renal = tested on: ACHN renal
BT-549 breast = tested on: BT-549 breast
CAKI-1 renal = tested on: CAKI-1 renal
CCRF-CEM leukemia = tested on: CCRF-CEM leukemia
COLO 205 colon = tested on: COLO 205 colon
DU-145 prostate = tested on: DU-145 prostate
EKVX NSCLC = tested on: EKVX NSCLC
HCC-2998 colon = tested on: HCC-2998 colon
HCT-116 colon = tested on: HCT-116 colon
HCT-15 colon = tested on: HCT-15 colon
HL-60(TB) leukemia = tested on: HL-60(TB) leukemia
HOP-62 NSCLC = tested on: HOP-62 NSCLC
HOP-92 NSCLC = tested on: HOP-92 NSCLC
HS 578T breast = tested on: HS 578T breast
HT29 colon = tested on: HT29 colon
IGROV1 ovarian = tested on: IGROV1 ovarian
K-562 leukemia = tested on: K-562 leukemia
KM12 colon = tested on: KM12 colon
LOX IMVI melanoma = tested on: LOX IMVI melanoma
M14 melanoma = tested on: M14 melanoma
MALME-3M melanoma = tested on: MALME-3M melanoma
MCF7 breast = tested on: MCF7 breast
MDA-MB-231 breast = tested on: MDA-MB-231 breast
MDA-MB-435 = tested on: MDA-MB-435
MOLT-4 leukemia = tested on: MOLT-4 leukemia
NCI-H226 lung = tested on: NCI-H226 lung
NCI-H23 lung = tested on: NCI-H23 lung
NCI-H322M lung = tested on: NCI-H322M lung
NCI-H460 lung = tested on: NCI-H460 lung
NCI-H522 lung = tested on: NCI-H522 lung
NCI/ADR-RES ovarian = tested on: NCI/ADR-RES ovarian
OVCAR-3 ovarian = tested on: OVCAR-3 ovarian
OVCAR-4 ovarian = tested on: OVCAR-4 ovarian
OVCAR-5 ovarian = tested on: OVCAR-5 ovarian
OVCAR-8 ovarian = tested on: OVCAR-8 ovarian
PC-3 prostate = tested on: PC-3 prostate
RPMI-8226 leukemia = tested on: RPMI-8226 leukemia
RXF 393 renal = tested on: RXF 393 renal
SF-268 CNS = tested on: SF-268 CNS
SF-295 CNS = tested on: SF-295 CNS
SF-539 CNS = tested on: SF-539 CNS
SK-MEL-28 melanoma = tested on: SK-MEL-28 melanoma
SK-MEL-5 melanoma = tested on: SK-MEL-5 melanoma
SK-OV-3 ovarian = tested on: SK-OV-3 ovarian
SN12C renal = tested on: SN12C renal
SNB-19 CNS = tested on: SNB-19 CNS
SNB-75 CNS = tested on: SNB-75 CNS
SR leukemia = tested on: SR leukemia
SW-620 colon = tested on: SW-620 colon
T-47D breast = tested on: T-47D breast
TK-10 renal = tested on: TK-10 renal
U251 CNS = tested on: U251 CNS
UACC-257 melanoma = tested on: UACC-257 melanoma
UACC-62 melanoma = tested on: UACC-62 melanoma
UO-31 renal = tested on: UO-31 renal

Structure (SMILES): CC(=O)OCC(CS[As](C)C)OC(C)=O (stereo unspecified)
- GI50 (786-0 renal): 300 nM
- TGI (786-0 renal): 1460 nM
- GI50 (A498 renal): 5940 nM
- TGI (A498 renal): 21400 nM
- GI50 (A549 NSCLC): 1790 nM
- TGI (A549 NSCLC): 19900 nM
- GI50 (ACHN renal): 226 nM
- TGI (ACHN renal): 1860 nM
- GI50 (BT-549 breast): 344 nM
- TGI (BT-549 breast): 3100 nM
- GI50 (CAKI-1 renal): 17.2 nM
- TGI (CAKI-1 renal): 60.8 nM
- GI50 (CCRF-CEM leukemia): 131 nM
- TGI (CCRF-CEM leukemia): 5970 nM
- GI50 (COLO 205 colon): 209 nM
- TGI (COLO 205 colon): 1530 nM
- GI50 (DU-145 prostate): 424 nM
- TGI (DU-145 prostate): 22000 nM
- GI50 (EKVX NSCLC): 4020 nM
- TGI (EKVX NSCLC): 12000 nM
- GI50 (HCC-2998 colon): 129 nM
- TGI (HCC-2998 colon): 293 nM
- GI50 (HCT-116 colon): 605 nM
- TGI (HCT-116 colon): 1890 nM
- GI50 (HCT-15 colon): 116 nM
- TGI (HCT-15 colon): 7010 nM
- GI50 (HL-60(TB) leukemia): 115 nM
- TGI (HL-60(TB) leukemia): 1130 nM
- GI50 (HOP-62 NSCLC): 3520 nM
- TGI (HOP-62 NSCLC): 11900 nM
- GI50 (HOP-92 NSCLC): 79.8 nM
- TGI (HOP-92 NSCLC): 522 nM
- GI50 (HS 578T breast): 1260 nM
- TGI (HS 578T breast): 18300 nM
- GI50 (HT29 colon): 981 nM
- TGI (HT29 colon): > 100000 nM
- GI50 (IGROV1 ovarian): 3010 nM
- TGI (IGROV1 ovarian): > 100000 nM
- GI50 (K-562 leukemia): 644 nM
- TGI (K-562 leukemia): 70400 nM
- GI50 (KM12 colon): 1990 nM
- TGI (KM12 colon): 9210 nM
- GI50 (LOX IMVI melanoma): 664 nM
- TGI (LOX IMVI melanoma): 3650 nM
- GI50 (M14 melanoma): 70.7 nM
- TGI (M14 melanoma): 1110 nM
- GI50 (MALME-3M melanoma): 49.6 nM
- TGI (MALME-3M melanoma): 266 nM
- GI50 (MCF7 breast): 1320 nM
- TGI (MCF7 breast): 11900 nM
- GI50 (MDA-MB-231 breast): 513 nM
- TGI (MDA-MB-231 breast): 3090 nM
- GI50 (MDA-MB-435): 71 nM
- TGI (MDA-MB-435): 400 nM
- GI50 (MOLT-4 leukemia): 126 nM
- TGI (MOLT-4 leukemia): 4090 nM
- GI50 (NCI-H226 lung): 1600 nM
- TGI (NCI-H226 lung): 9310 nM
- GI50 (NCI-H23 lung): 28.5 nM
- TGI (NCI-H23 lung): 115 nM
- GI50 (NCI-H322M lung): 5330 nM
- TGI (NCI-H322M lung): 14300 nM
- GI50 (NCI-H460 lung): 3250 nM
- TGI (NCI-H460 lung): 27100 nM
- GI50 (NCI-H522 lung): 323 nM
- TGI (NCI-H522 lung): 13000 nM
- GI50 (NCI/ADR-RES ovarian): 68 nM
- TGI (NCI/ADR-RES ovarian): 427 nM
- GI50 (OVCAR-3 ovarian): 48.5 nM
- TGI (OVCAR-3 ovarian): 233 nM
- GI50 (OVCAR-4 ovarian): 346 nM
- TGI (OVCAR-4 ovarian): 3480 nM
- GI50 (OVCAR-5 ovarian): 234 nM
- TGI (OVCAR-5 ovarian): 694 nM
- GI50 (OVCAR-8 ovarian): 1900 nM
- TGI (OVCAR-8 ovarian): 17800 nM
- GI50 (PC-3 prostate): 379 nM
- TGI (PC-3 prostate): 4410 nM
- GI50 (RPMI-8226 leukemia): 160 nM
- TGI (RPMI-8226 leukemia): 489 nM
- GI50 (RXF 393 renal): 651 nM
- TGI (RXF 393 renal): 5070 nM
- GI50 (SF-268 CNS): 1290 nM
- TGI (SF-268 CNS): 11200 nM
- GI50 (SF-295 CNS): 1870 nM
- TGI (SF-295 CNS): 6710 nM
- GI50 (SF-539 CNS): 460 nM
- TGI (SF-539 CNS): 5280 nM
- GI50 (SK-MEL-28 melanoma): 1240 nM
- TGI (SK-MEL-28 melanoma): 21500 nM
- GI50 (SK-MEL-5 melanoma): 1590 nM
- TGI (SK-MEL-5 melanoma): 4910 nM
- GI50 (SK-OV-3 ovarian): 303 nM
- TGI (SK-OV-3 ovarian): 1650 nM
- GI50 (SN12C renal): 251 nM
- TGI (SN12C renal): 1160 nM
- GI50 (SNB-19 CNS): 6160 nM
- TGI (SNB-19 CNS): 27800 nM
- GI50 (SNB-75 CNS): 5530 nM
- TGI (SNB-75 CNS): 16400 nM
- GI50 (SR leukemia): 227 nM
- TGI (SR leukemia): 1440 nM
- GI50 (SW-620 colon): 541 nM
- TGI (SW-620 colon): > 100000 nM
- GI50 (T-47D breast): 560 nM
- TGI (T-47D breast): 49500 nM
- GI50 (TK-10 renal): 200 nM
- TGI (TK-10 renal): 2000 nM
- GI50 (U251 CNS): 2320 nM
- TGI (U251 CNS): 12800 nM
- GI50 (UACC-257 melanoma): 654 nM
- TGI (UACC-257 melanoma): 27500 nM
- GI50 (UACC-62 melanoma): 1570 nM
- TGI (UACC-62 melanoma): 14600 nM
- GI50 (UO-31 renal): 862 nM
- TGI (UO-31 renal): 52000 nM
